From ChEMBL document CHEMBL5608193, “Discovery of bivalent small molecule degraders of cyclin-dependent kinase 7 (CDK7)” (Eur J Med Chem, 2024)

Protein sequences, listed by entry. Tags and fused reporters are not part of them. Lines headed by an entry give the natural chain unless they say otherwise; changes in a name come on top.
UniProt P51946: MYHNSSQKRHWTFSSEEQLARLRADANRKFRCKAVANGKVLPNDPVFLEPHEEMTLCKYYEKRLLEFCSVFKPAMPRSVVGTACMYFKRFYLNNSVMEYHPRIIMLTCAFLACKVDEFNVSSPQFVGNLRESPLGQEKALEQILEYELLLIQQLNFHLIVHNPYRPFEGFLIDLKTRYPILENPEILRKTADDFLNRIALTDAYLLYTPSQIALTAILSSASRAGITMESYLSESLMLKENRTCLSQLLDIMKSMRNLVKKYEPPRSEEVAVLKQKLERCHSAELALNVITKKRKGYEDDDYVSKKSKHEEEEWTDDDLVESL
UniProt P50613: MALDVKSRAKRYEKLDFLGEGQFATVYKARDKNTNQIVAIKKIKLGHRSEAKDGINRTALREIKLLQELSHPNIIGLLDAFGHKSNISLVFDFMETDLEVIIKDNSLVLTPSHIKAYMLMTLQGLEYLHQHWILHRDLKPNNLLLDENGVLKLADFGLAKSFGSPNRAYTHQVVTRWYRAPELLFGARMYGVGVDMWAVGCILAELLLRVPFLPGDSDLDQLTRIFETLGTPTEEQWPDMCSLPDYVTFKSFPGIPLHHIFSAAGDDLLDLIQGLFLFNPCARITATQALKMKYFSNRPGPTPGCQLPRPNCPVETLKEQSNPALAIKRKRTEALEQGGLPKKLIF
UniProt P51948: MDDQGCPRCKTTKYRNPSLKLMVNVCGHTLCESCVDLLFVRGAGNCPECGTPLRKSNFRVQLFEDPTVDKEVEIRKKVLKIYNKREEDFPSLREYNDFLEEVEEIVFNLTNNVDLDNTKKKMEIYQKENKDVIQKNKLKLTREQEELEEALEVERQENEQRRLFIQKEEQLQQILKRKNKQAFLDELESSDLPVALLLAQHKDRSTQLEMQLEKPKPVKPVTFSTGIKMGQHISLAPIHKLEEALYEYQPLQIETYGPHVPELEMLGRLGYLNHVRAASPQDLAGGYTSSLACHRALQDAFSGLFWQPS

Biological target: CDK7/Cyclin H/MNAT1 (Homo sapiens) (UniProt P51946+P50613+P51948)
Test: Inhibition of recombinant GST-tagged CDK7/CycH/MAT1 (unknown origin) extracted from baculo-virus infected Sf9 insect cells assessed as kinact/Ki ratio using ATP containing 32P measured after 15 mins by Beckman liquid scintillation counter analysis
Assay type: cell-based

C=CC(=O)Nc1ccc(C(=O)Nc2n[nH]c3c2CN(C(=O)N[C@@H](CN(C)C)c2ccccc2)C3(C)C)cc1
Ratio: 103 /microsec/nM
